Results published in patent publication US7687620B2, “[1,4]diazepino[6,7,1-IJ]quinoline derivatives as antipsychotic and antiobesity agents” (Wyeth LLC, priority 2002, dated 2010).
pKi: −log10 of the molar value.

By UniProt entry, the sequences of proteins in these tests, tags left out. Residues count along the entry.
UniProt P28335, 33-458: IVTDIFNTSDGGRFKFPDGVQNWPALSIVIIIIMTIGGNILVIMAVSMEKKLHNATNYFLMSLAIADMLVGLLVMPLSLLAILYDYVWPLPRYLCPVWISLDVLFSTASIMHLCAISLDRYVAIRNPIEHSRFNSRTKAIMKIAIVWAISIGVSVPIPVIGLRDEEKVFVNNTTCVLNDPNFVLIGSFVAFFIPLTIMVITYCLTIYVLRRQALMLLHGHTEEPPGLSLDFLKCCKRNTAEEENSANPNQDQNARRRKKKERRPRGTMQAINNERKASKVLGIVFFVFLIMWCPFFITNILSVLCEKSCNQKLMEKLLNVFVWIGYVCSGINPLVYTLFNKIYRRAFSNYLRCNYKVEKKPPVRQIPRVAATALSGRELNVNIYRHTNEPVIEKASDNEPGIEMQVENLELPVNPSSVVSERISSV

Molecular target: T1, human 5-hydroxytryptamine2C (h5HT2C) receptor (Homo sapiens, UniProt P28335)
T1 construct: expressed in transfected cells; host or cells: CHO (Chinese Hamster Ovary) cells; membrane preparation
Assay: 5HT2C receptor binding ([125I]DOI displacement, CHO cell membranes)
Conditions: [125I]DOI binding, CHO membranes expressing h5HT2C; 95% confidence interval in brackets; read-out: Ki (95% confidence interval), reference compounds

Substance “1-(2,5-dimethoxy-4-iodophenyl)isopropylamine [DOI, reference compound]” has a pKi of 8.21.
